Data set [1] deals with APAGLIVPYN (SEQ ID NO: 5).
Data set [2] concerns IVGRPRHQGV (SEQ ID NO: 7).

Cathepsin B: the initial rate of cleavage by recombinant protease stood at 1 µM/h in data set [1]; 1.9 µM/h in data set [2]; 0 µM/h in the data set on PANLVAPDP (SEQ ID NO: 6); 0 µM/h in the data set with PVSLRSGS (SEQ ID NO: 1); 0.3 µM/h in the data set on RPLALWRS (SEQ ID NO: 3); 1.9 µM/h with RSKYLATA (SEQ ID NO: 8). The initial rate of cleavage by recombinant protease with TQKPLGLS (SEQ ID NO: 4) was 0.3 µM/h.

(Values after patent US20230144608.)
